The chains behind the UniProt entries cited, without tags or fusion partners. Where a name states a change or a piece, a line headed by the entry shows the natural chain unless it says otherwise.
UniProt Q13555: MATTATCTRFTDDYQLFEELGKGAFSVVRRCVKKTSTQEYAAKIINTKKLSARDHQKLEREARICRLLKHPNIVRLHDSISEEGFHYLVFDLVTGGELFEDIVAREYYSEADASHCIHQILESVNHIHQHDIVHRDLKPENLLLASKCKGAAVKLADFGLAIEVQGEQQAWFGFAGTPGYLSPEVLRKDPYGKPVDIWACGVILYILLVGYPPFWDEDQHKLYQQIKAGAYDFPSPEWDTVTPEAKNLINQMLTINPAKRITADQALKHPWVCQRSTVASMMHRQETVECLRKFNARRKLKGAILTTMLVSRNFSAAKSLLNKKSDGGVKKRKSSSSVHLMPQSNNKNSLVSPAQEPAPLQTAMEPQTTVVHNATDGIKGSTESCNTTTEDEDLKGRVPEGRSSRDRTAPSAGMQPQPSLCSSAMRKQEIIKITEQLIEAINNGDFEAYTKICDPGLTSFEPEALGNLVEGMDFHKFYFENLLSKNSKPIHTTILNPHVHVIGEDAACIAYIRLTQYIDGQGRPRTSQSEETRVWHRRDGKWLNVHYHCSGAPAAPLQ
UniProt Q15375: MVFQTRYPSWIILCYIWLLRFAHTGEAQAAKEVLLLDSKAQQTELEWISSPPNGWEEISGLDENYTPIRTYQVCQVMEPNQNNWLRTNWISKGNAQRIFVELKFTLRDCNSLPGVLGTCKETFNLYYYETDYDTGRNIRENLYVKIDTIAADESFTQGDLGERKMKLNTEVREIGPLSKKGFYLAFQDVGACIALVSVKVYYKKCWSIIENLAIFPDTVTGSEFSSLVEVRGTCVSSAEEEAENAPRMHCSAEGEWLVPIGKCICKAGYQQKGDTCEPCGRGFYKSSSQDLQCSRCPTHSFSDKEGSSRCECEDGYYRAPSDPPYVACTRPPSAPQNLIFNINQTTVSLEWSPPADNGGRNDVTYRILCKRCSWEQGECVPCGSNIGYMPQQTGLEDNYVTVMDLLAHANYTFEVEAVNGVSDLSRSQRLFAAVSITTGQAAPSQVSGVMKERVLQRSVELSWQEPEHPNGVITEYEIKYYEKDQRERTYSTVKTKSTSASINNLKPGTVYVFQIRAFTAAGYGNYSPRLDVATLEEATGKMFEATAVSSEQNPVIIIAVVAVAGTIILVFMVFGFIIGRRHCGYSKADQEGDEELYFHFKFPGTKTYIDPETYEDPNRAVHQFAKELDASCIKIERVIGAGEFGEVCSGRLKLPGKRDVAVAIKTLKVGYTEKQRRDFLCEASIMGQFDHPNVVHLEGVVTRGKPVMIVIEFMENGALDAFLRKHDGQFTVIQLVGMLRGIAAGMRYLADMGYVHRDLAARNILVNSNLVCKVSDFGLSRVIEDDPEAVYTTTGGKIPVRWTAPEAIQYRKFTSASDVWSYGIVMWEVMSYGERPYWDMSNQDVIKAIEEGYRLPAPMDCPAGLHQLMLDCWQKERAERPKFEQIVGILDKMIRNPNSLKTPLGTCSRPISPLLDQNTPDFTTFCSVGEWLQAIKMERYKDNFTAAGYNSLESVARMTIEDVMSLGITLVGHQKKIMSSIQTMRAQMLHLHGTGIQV
UniProt O43353, whole entry: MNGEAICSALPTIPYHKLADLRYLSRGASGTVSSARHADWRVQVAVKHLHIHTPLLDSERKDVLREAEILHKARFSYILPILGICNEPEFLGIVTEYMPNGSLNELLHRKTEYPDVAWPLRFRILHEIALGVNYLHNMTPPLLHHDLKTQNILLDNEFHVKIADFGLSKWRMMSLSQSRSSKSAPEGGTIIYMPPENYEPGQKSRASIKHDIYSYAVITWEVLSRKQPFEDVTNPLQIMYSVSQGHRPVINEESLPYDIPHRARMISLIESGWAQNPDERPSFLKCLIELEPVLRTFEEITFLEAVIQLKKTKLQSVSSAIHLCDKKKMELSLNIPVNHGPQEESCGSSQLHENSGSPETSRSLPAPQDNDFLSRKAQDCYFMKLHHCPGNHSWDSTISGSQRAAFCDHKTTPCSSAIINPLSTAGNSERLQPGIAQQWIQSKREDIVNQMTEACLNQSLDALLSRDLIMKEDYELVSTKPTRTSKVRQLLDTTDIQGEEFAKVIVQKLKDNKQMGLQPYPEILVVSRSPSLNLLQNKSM
UniProt Q8TDR2: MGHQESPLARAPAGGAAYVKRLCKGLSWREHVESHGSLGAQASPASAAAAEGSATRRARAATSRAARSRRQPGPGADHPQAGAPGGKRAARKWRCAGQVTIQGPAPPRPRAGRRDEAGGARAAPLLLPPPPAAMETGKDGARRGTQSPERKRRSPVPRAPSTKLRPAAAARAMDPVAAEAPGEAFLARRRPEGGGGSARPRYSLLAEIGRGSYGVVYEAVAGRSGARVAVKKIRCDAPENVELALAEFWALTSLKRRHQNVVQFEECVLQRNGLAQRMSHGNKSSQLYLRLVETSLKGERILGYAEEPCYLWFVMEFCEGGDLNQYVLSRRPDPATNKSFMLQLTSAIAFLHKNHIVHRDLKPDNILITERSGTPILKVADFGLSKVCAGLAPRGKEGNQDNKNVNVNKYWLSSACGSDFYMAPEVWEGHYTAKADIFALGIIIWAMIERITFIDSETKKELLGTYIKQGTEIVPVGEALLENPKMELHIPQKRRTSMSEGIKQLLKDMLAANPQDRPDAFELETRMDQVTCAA
UniProt P54756, whole entry: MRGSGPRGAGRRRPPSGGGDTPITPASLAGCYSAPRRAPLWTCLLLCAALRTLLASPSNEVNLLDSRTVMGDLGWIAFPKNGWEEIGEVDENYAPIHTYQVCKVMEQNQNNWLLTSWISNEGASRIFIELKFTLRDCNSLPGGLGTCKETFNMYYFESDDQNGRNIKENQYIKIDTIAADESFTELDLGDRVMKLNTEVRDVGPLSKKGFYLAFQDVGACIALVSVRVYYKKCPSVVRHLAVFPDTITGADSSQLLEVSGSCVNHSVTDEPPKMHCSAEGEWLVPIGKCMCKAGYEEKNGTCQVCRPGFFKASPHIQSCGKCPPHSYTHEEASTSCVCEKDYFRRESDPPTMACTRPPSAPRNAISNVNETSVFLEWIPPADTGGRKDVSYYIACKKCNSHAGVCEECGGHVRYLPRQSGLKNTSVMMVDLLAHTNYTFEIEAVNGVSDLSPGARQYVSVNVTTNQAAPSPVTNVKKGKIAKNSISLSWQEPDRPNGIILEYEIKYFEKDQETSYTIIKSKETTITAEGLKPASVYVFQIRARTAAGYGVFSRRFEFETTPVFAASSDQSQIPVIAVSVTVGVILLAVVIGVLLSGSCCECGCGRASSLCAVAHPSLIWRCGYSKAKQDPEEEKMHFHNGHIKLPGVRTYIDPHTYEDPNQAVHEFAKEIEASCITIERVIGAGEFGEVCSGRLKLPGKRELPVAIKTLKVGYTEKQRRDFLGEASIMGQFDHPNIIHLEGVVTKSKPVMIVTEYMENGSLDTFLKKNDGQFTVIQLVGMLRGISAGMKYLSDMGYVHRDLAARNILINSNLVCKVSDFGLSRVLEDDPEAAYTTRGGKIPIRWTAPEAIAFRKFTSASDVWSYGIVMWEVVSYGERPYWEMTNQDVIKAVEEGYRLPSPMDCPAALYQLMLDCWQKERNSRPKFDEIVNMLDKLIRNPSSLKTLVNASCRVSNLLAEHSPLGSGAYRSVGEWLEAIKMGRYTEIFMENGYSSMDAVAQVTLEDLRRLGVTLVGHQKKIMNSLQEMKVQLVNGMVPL
UniProt P41240: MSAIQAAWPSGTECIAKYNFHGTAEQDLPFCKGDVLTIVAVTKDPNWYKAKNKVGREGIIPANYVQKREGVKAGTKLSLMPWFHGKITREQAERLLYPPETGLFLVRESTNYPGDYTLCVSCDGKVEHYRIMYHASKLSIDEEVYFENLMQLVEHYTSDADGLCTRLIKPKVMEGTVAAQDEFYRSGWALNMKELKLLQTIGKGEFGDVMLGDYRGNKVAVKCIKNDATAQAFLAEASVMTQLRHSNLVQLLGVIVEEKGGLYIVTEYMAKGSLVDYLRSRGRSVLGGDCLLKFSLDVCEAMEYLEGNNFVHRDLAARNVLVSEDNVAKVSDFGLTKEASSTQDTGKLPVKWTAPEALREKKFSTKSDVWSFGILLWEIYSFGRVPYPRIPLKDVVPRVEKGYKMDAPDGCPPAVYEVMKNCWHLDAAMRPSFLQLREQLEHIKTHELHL
UniProt P27037, whole entry: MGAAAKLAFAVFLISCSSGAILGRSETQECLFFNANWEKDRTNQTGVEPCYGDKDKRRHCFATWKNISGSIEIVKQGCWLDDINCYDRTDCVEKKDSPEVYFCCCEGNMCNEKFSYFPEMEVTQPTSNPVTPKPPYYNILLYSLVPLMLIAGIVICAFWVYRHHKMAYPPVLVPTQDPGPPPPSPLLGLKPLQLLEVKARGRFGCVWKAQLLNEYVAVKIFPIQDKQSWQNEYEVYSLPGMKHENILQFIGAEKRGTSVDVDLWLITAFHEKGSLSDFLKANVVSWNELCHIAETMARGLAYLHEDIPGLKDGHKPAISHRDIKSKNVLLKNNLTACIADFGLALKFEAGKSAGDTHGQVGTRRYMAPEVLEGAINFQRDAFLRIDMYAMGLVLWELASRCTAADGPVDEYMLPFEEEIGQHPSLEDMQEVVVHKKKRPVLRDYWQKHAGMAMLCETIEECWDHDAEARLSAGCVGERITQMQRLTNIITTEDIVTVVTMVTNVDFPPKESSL

In the supplement of paper PMC11403291:

Legend:
Assay in all cases: apparent dissociation constant pKd app (kinobead competition) (-log10(M)); higher = stronger binding
CAMK2G = CAMK2G (UniProt Q13555)
MAP2K5 = target: T1, MAP2K5 (UniProt Q13163)
T1 sequence (whole entry): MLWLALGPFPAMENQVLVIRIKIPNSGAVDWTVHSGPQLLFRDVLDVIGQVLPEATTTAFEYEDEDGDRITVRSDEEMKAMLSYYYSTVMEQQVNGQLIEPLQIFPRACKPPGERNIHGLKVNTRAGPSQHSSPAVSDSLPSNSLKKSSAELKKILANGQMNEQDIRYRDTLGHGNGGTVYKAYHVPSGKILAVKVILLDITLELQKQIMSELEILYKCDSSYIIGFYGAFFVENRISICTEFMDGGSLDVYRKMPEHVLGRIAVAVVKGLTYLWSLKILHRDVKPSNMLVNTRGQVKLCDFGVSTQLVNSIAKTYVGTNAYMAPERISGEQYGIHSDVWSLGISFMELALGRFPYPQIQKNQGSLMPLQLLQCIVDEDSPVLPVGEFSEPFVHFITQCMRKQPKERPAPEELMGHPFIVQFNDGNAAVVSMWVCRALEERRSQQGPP

EPHA7 = EPHA7 (UniProt Q15375)
RIPK2 = RIPK2 (UniProt O43353)
STK35 = STK35 (UniProt Q8TDR2)
EPHA5 = EPHA5 (UniProt P54756)
CSK = CSK (UniProt P41240)
ACVR2A = ACVR2A (UniProt P27037)
CDKL5 = target: T2, CDKL5 (UniProt O76039)
T2 sequence (whole entry): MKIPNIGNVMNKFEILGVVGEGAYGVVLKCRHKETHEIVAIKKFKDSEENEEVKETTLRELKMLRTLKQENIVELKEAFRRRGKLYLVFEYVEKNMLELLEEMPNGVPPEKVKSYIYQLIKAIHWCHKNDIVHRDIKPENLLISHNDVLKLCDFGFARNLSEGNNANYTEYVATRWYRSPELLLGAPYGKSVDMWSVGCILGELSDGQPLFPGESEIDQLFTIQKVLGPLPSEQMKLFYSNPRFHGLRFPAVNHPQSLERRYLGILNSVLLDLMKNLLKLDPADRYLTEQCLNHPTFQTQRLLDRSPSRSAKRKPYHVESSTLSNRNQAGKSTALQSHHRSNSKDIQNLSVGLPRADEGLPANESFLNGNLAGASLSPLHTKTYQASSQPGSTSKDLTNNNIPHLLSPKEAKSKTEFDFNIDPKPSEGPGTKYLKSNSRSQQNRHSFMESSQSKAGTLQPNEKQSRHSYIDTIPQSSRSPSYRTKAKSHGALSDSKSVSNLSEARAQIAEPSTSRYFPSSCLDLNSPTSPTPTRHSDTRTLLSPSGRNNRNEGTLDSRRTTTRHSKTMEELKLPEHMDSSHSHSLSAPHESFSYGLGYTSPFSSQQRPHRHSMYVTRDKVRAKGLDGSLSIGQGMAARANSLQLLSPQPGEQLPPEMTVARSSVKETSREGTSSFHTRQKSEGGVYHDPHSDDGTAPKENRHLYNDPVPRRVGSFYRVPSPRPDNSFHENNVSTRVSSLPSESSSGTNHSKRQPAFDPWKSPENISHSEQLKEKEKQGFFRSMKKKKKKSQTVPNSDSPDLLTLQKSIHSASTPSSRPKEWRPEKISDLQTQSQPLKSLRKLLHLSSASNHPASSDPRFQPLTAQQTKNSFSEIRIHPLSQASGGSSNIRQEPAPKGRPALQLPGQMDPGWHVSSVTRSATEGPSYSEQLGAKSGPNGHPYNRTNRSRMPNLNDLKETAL

Row | Structure (SMILES) | apparent dissociation constant pKd app (-log10) (CAMK2G) | apparent dissociation constant pKd app (-log10) (MAP2K5) | apparent dissociation constant pKd app (-log10) (EPHA7) | apparent dissociation constant pKd app (-log10) (RIPK2) | apparent dissociation constant pKd app (-log10) (STK35) | apparent dissociation constant pKd app (-log10) (EPHA5) | apparent dissociation constant pKd app (-log10) (CSK) | apparent dissociation constant pKd app (-log10) (ACVR2A) | apparent dissociation constant pKd app (-log10) (CDKL5)
1 | NC(=O)c1cccc2cn(-c3ccc([C@@H]4CCCNC4)cc3)nc12 [Niraparib] | < 4.9 | < 4.6 | < 4.5 | < 4.8 | < 4.5 | < 4.6 | < 4.6 | < 4.6 | < 4.7
2 | Cn1ncnc1[C@H]1c2n[nH]c(=O)c3cc(F)cc(c23)N[C@@H]1c1ccc(F)cc1 [Talazoparib] | < 4.9 | < 4.6 | < 4.5 | < 4.8 | < 4.5 | < 4.6 | < 4.6 | < 4.6 | < 4.7
3 | O=C(c1cc(Cc2n[nH]c(=O)c3ccccc23)ccc1F)N1CCN(C(=O)C2CC2)CC1 [Olaparib] | < 4.9 | < 4.6 | < 4.5 | < 4.8 | < 4.5 | < 4.6 | < 4.6 | < 4.6 | < 4.7
